Experimental data: US9422289B2, “Use of pteridine derivatives for the treatment of increased intracranial pressure, secondary ischemia, and disorders associated with an increased level of cytotoxic reactive oxygen species” (VASOPHARM GMBH, priority 2003, dated 2016)
pIC50: −log10 of the molar value.

Target: α2 (non-selective)
Experiment: Radioligand binding, Cerep 802-1b

## COC(=O)[C@@H]1[C@H]2C[C@H]3c4[nH]c5ccccc5c4CCN3C[C@@H]2CC[C@@H]1O [yohimbine, reference compound]
  pIC50: 7.13
